This passage reports functional profile results from article PMC8041276 (ACS Chemical Neuroscience, 2021).

The chains behind the UniProt entries cited, without tags or fusion partners.
UniProt P50406, whole entry: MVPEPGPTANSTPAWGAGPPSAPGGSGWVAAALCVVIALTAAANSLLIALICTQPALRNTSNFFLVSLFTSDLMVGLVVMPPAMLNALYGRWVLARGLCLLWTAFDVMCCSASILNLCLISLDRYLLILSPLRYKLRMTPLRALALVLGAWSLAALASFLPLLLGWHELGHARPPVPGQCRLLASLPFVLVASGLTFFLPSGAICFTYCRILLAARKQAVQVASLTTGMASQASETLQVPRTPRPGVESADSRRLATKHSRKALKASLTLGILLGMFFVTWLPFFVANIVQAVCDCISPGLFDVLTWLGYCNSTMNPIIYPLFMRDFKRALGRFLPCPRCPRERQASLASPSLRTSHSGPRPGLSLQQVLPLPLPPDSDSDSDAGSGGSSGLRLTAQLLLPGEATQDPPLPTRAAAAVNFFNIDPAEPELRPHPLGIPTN

In the experiment the target is 5-HT6R (Homo sapiens, UniProt P50406). Briefly: Basal cAMP production (constitutive Gs signaling) in NG108-15 cells transiently expressing 5-HT6R, CAMYEL BRET. Type of experiment: cell-based. Set-up: expressed in transfected cells; host or cells: NG108-15 (transient, Lipofectamine 2000, cotransfected with the CAMYEL sensor). The settings on record: 5-HT6R-dependent Gs signaling. How it is done: NG108-15 cells were grown in Dulbecco’s modified Eagle’s medium (DMEM) supplemented with 10% dialyzed fetal calf serum, 2% hypoxanthine/aminopterin/thymidine (Life Technologies), and antibiotics. cAMP measurement was performed in cells transiently expressing 5-HT6R using the bioluminescence resonance energy transfer (BRET) sensor for cAMP, CAMYEL (cAMP sensor using YFP-Epac-RLuc).[45] NG108-15 cells were cotransfected in suspension with 5-HT6R (0.5 μg DNA/million cells) and CAMYEL constructs (1 μg DNA/million cells), using Lipofectamine 2000 according to the manufacturer’s protocol, and plated in white 96-well plates (Greiner) at a density of 50 000 cells per well. […] Coelanterazine H (Molecular Probes) was added at a final concentration of 5 μM and left at room temperature for 5 min. BRET was measured using a Mithras LB 940 plate reader (Berthold Technologies).

Turning to `COc1ccc(NS(=O)(=O)c2sc3ccc(Cl)cc3c2C)cc1N1CCNCC1` [SB-271046, reference compound], the functional profile entry is listed as “inverse agonist”.
